In article PMC5526615, “Phenotypic, chemical and functional characterization of cyclic nucleotide phosphodiesterase 4 (PDE4) as a potential anthelmintic drug target” (PLoS Neglected Tropical Diseases, 2017):

System: Nc1ncnc2c1ncn2[C@@H]1O[C@@H]2COP(=O)(O)O[C@H]2[C@H]1O
Experiment: purified protein, by the assay type
Conditions: other: cAMP substrate up to 10 μM, 23.5 units/ml SmPDE4A

Q: What does the source list for SmPDE4A (Schistosoma mansoni)?
A: Km: 3.0 µM; Vmax: 32.6 pmol/min
